As usually defined, the Kd is the concentration at which binding is half-saturated. A low value points to tighter binding.

The target of the test is T1, IL-7 receptor ectodomain (rhIL-7Rα) (human, UniProt P16871 21-239).
T1 chain: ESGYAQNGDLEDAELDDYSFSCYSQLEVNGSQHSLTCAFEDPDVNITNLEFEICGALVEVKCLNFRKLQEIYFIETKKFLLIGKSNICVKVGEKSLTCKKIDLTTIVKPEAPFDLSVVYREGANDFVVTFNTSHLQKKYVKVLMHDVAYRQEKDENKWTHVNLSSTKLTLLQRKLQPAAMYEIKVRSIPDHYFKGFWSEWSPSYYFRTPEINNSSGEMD
As to the kind of experiment: SPR.

B1: recombinant human IL-7 produced in E. coli (non-glycosylated), intact (ligand)
chain: DCDIEGKDGKQYESVLMVSIDQLLDSMKEIGSNCLNNEFNFFKRHICDANKEGMFLFRAARKLRQFLKMNSTGDFDLHLLKVSEGTTILLNCTGQVKGRKPAALGEAQPTKSLEENKSLKEQKKLNDLCFLKRLLQEIKTCWNKILMGTKEH
B1 showed a Kd of 0.077 µM. This lies in the double-digit nanomolar range.

B2: recombinant human IL-7 produced in human HEK-293 cells (fully glycosylated), intact (ligand)
chain: B1 chain
modifications: N-linked oligosaccharides (fully glycosylated; sites shown in Figure 1D)
B2 displayed a Kd of 0.31 µM.
